Residue numbers refer to the chain shown, from its start.
Experiments:
[1] = target: T1, CHC 1–574 (Homo sapiens, UniProt Q00610); assay: FP binding assay, CHC 1–574; conditions: 50 nM FAM peptide, pH 7.5, 25°C; for reduction of affinity for CHC 1–574 compared to WT: in words; for affinity for CHC 1–574 (in words): effect of S558 phosphorylation or phosphomimetic
T1 construct: GST (cleaved yes); made in house
T1 sequence (Q00610 1-574): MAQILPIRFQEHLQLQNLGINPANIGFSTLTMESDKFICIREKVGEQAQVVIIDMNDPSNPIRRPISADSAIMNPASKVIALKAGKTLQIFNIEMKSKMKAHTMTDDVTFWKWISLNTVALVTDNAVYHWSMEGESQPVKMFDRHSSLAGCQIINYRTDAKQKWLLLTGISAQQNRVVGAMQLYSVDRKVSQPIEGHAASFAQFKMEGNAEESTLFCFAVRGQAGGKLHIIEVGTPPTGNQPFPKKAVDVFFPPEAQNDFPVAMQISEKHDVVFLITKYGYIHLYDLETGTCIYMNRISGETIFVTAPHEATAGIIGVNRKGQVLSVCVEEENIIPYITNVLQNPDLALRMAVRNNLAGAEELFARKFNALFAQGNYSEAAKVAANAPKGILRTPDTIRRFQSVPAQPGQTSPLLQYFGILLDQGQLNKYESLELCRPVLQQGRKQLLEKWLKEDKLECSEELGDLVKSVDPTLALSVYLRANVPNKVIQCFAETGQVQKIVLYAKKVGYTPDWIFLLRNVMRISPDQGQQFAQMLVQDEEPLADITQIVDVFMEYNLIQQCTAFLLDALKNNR
Protocol: For CHC‐TACC3 FP assays, CHC proteins were serially diluted in FP buffer (20 mM HEPES–NaOH pH 7.5, 200 mM NaCl, 5 mM DTT). FAM‐labelled TACC3 peptide was added to a final concentration of 50 nM and incubated for 30 min at room temperature to allow binding to reach equilibrium. Fluorescence polarization measurements were made using a Victor X5 plate reader (Perkin Elmer) at 25°C with excitation at 490 nm and emission at 535 nm. Data analysis was performed as described above.

[2] = target: T2, CHC 1–574 F492Y (Homo sapiens, UniProt Q00610, F492Y); assay: FP binding assay, CHC 1–574 F492Y; conditions: CHC 1–574 F492Y relative to WT CHC
T2 construct: GST (cleaved yes); made in house
T2 sequence (Q00610 1-574 F492Y): T1 sequence (Q00610 1-574) with F492Y
Source text: Next, we examined whether the CHC‐TACC3 interaction could be disrupted by mutations on the surface of CHC, based on analysis of the crystal structure (Fig 6A). For example, R481 interacts with both TACC3 Y560 and TACC3 D564 and was mutated to glutamic acid to disrupt both interactions. We explored the opportunities for disruption of specific contacts with the side chain of TACC3 F563: L480 nestles against the Cβ atom of TACC3 F563 and was mutated to aspartic acid alone or in combination with a L476D mutation, which disrupts the hydrophobic surface contacting P565; the double mutation L503A/Y504A removes the pocket into which the phenyl group of F563 binds; the subtle F492Y mutation introduces an –OH group that is predicted to clash with the Cβ atom of TACC3 F563. The mutant CHC proteins were expressed and purified as the WT protein, and binding affinities to the FAM‐labelled pTACC3^CID were measured using the FP assay (Fig 6B). […] The four other mutant CHC proteins were measured to have K ds for pTACC3^CID of over 300 μM. […]
For CHC‐TACC3 FP assays, CHC proteins were serially diluted in FP buffer (20 mM HEPES–NaOH pH 7.5, 200 mM NaCl, 5 mM DTT). […] Fluorescence polarization measurements were made using a Victor X5 plate reader (Perkin Elmer) at 25°C with excitation at 490 nm and emission at 535 nm. […]

Row | reduction of affinity for CHC 1–574 compared to WT ([1]; mutant vs WT phospho-TACC3^CID) | SMILES | further results
1 | negligible | CC(C)C[C@H](NC(=O)[C@H](C)NC(=O)[C@H](CO)NC(=O)[C@H](CCC(=O)O)NC(=O)[C@H](CCCCN)NC(=O)[C@H](Cc1ccccc1)NC(=O)c1ccc2c(c1)C(=O)OC21c2ccc(O)cc2Oc2cc(O)ccc21)C(=O)N[C@@H](CCCNC(=N)N)C(=O)N[C@@H](CCCCN)C(=O)N[C@@H](CCC(N)=O)C(=O)N[C@@H](COP(=O)(O)O)C(=O)N[C@@H](CC(C)C)C(=O)N[C@@H](Cc1ccc(O)cc1)C(=O)N[C@@H](CC(C)C)C(=O)N[C@@H](C)C(=O)N[C@@H](Cc1ccccc1)C(=O)N[C@@H](CC(=O)O)C(=O)N1CCC[C@H]1C(=O)N[C@@H](CC(C)C)C(=O)N[C@@H](CC(C)C)C(=O)N[C@@H](CCCNC(=N)N)C(=O)N[C@@H](CC(=O)O)C(=O)N[C@@H](CO)C(=O)O [K562A] | –
2 | at least fourfold | CC(C)C[C@H](NC(=O)[C@H](C)NC(=O)[C@H](CO)NC(=O)[C@H](CCC(=O)O)NC(=O)[C@H](CCCCN)NC(=O)[C@H](Cc1ccccc1)NC(=O)c1ccc2c(c1)C(=O)OC21c2ccc(O)cc2Oc2cc(O)ccc21)C(=O)N[C@@H](CCCNC(=N)N)C(=O)N[C@@H](CCCCN)C(=O)N[C@@H](CCC(N)=O)C(=O)N[C@@H](COP(=O)(O)O)C(=O)N[C@@H](C)C(=O)N[C@@H](Cc1ccc(O)cc1)C(=O)N[C@@H](CC(C)C)C(=O)N[C@@H](CCCCN)C(=O)N[C@@H](Cc1ccccc1)C(=O)N[C@@H](CC(=O)O)C(=O)N1CCC[C@H]1C(=O)N[C@@H](CC(C)C)C(=O)N[C@@H](CC(C)C)C(=O)N[C@@H](CCCNC(=N)N)C(=O)N[C@@H](CC(=O)O)C(=O)N[C@@H](CO)C(=O)O [L559A] | –

Further lines, the molecule ahead of its results:

Row | SMILES | reduction of affinity for CHC 1–574 compared to WT ([1]; mutant vs WT phospho-TACC3^CID) | further results
3 | CC(C)C[C@H](NC(=O)[C@H](C)NC(=O)[C@H](CO)NC(=O)[C@H](CCC(=O)O)NC(=O)[C@H](CCCCN)NC(=O)[C@H](Cc1ccccc1)NC(=O)c1ccc2c(c1)C(=O)OC21c2ccc(O)cc2Oc2cc(O)ccc21)C(=O)N[C@@H](C)C(=O)N[C@@H](CCCCN)C(=O)N[C@@H](CCC(N)=O)C(=O)N[C@@H](COP(=O)(O)O)C(=O)N[C@@H](CC(C)C)C(=O)N[C@@H](Cc1ccc(O)cc1)C(=O)N[C@@H](CC(C)C)C(=O)N[C@@H](CCCCN)C(=O)N[C@@H](Cc1ccccc1)C(=O)N[C@@H](CC(=O)O)C(=O)N1CCC[C@H]1C(=O)N[C@@H](CC(C)C)C(=O)N[C@@H](CC(C)C)C(=O)N[C@@H](CCCNC(=N)N)C(=O)N[C@@H](CC(=O)O)C(=O)N[C@@H](CO)C(=O)O [R555A] | – | factor of reduction of affinity for CHC 1–574 ([1]; mutant vs WT phospho-TACC3^CID): 4–5 factor
4 | CC(C)C[C@H](NC(=O)[C@H](C)NC(=O)[C@H](CO)NC(=O)[C@H](CCC(=O)O)NC(=O)[C@H](CCCCN)NC(=O)[C@H](Cc1ccccc1)NC(=O)c1ccc2c(c1)C(=O)OC21c2ccc(O)cc2Oc2cc(O)ccc21)C(=O)N[C@@H](CCCNC(=N)N)C(=O)N[C@@H](CCCCN)C(=O)N[C@@H](CCC(N)=O)C(=O)N[C@@H](CCC(=O)O)C(=O)N[C@@H](CC(C)C)C(=O)N[C@@H](Cc1ccc(O)cc1)C(=O)N[C@@H](CC(C)C)C(=O)N[C@@H](CCCCN)C(=O)N[C@@H](Cc1ccccc1)C(=O)N[C@@H](CC(=O)O)C(=O)N1CCC[C@H]1C(=O)N[C@@H](CC(C)C)C(=O)N[C@@H](CC(C)C)C(=O)N[C@@H](CCCNC(=N)N)C(=O)N[C@@H](CC(=O)O)C(=O)N[C@@H](CO)C(=O)O [S558E] | – | affinity for CHC 1–574 (in words) [1]: did not increase affinity
5 | CC(C)C[C@H](NC(=O)[C@H](C)NC(=O)[C@H](CO)NC(=O)[C@H](CCC(=O)O)NC(=O)[C@H](CCCCN)NC(=O)[C@H](Cc1ccccc1)NC(=O)c1ccc2c(c1)C(=O)OC21c2ccc(O)cc2Oc2cc(O)ccc21)C(=O)N[C@@H](CCCNC(=N)N)C(=O)N[C@@H](CCCCN)C(=O)N[C@@H](CCC(N)=O)C(=O)N[C@@H](COP(=O)(O)O)C(=O)N[C@@H](CC(C)C)C(=O)N[C@@H](C)C(=O)N[C@@H](CC(C)C)C(=O)N[C@@H](CCCCN)C(=O)N[C@@H](Cc1ccccc1)C(=O)N[C@@H](CC(=O)O)C(=O)N1CCC[C@H]1C(=O)N[C@@H](CC(C)C)C(=O)N[C@@H](CC(C)C)C(=O)N[C@@H](CCCNC(=N)N)C(=O)N[C@@H](CC(=O)O)C(=O)N[C@@H](CO)C(=O)O [Y560A] | at least fourfold | –
6 | CC(C)C[C@H](NC(=O)[C@H](C)NC(=O)[C@H](CO)NC(=O)[C@H](CCC(=O)O)NC(=O)[C@H](CCCCN)NC(=O)[C@H](Cc1ccccc1)NC(=O)c1ccc2c(c1)C(=O)OC21c2ccc(O)cc2Oc2cc(O)ccc21)C(=O)N[C@@H](CCCNC(=N)N)C(=O)N[C@@H](CCCCN)C(=O)N[C@@H](CCC(N)=O)C(=O)N[C@@H](COP(=O)(O)O)C(=O)N[C@@H](CC(C)C)C(=O)N[C@@H](Cc1ccc(O)cc1)C(=O)N[C@@H](CC(C)C)C(=O)N[C@@H](CCCCN)C(=O)N[C@@H](Cc1ccccc1)C(=O)N[C@@H](CC(=O)O)C(=O)N1CCC[C@H]1C(=O)N[C@@H](CC(C)C)C(=O)N[C@@H](CC(C)C)C(=O)N[C@@H](CCCNC(=N)N)C(=O)N[C@@H](CC(=O)O)C(=O)N[C@@H](CO)C(=O)O [FAM‐phospho‐TACC3^CID] | – | increase in K d [2]: > 6 fold; affinity for CHC 1–574 (in words) [1]: enhanced affinity fourfold
7 | CC(C)C[C@H](NC(=O)[C@H](C)NC(=O)[C@H](CO)NC(=O)[C@H](CCC(=O)O)NC(=O)[C@H](CCCCN)NC(=O)[C@H](Cc1ccccc1)NC(=O)c1ccc2c(c1)C(=O)OC21c2ccc(O)cc2Oc2cc(O)ccc21)C(=O)N[C@@H](CCCNC(=N)N)C(=O)N[C@@H](CCCCN)C(=O)N[C@@H](CCC(N)=O)C(=O)N[C@@H](COP(=O)(O)O)C(=O)N[C@@H](CC(C)C)C(=O)N[C@@H](Cc1ccc(O)cc1)C(=O)N[C@@H](CC(C)C)C(=O)N[C@@H](CCCCN)C(=O)N[C@@H](C)C(=O)N[C@@H](CC(=O)O)C(=O)N1CCC[C@H]1C(=O)N[C@@H](CC(C)C)C(=O)N[C@@H](CC(C)C)C(=O)N[C@@H](CCCNC(=N)N)C(=O)N[C@@H](CC(=O)O)C(=O)N[C@@H](CO)C(=O)O [F563A] | at least fourfold | –
